Sampled rows, rich in hits. Any-hit rate of the full collection: about 2.8%.
PGC1a acetyl inh – PGC1a acetylation modulation, inhibitor mode; U2OS PGC1a acetylation, AlphaScreen anti-acetyl-lysine; with virally co-expressed GCN5 acetyltransferase; inhibition, % at 15.6 µM; actives 0.17% (n = 350,000);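 active = every replicate shows inhibition of at least 40%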;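 note: 0% = neutral control wells and 100% = positive control wells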
E-selectin induc – E-selectin induction on HUVECs. actives 0.37% (n = 260,000). activation, % at 7.58 µM. P16581. HUVEC E-selectin immunofluorescence imaging; normalized: neutral wells 0, TNF-alpha wells 100;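 active = mean E-selectin-positive cell signal at least 10% of the positive control, reached in at least 60% of replicates, without over 20% cell loss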
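Test system: HUVEC; input: 3,000 HUVEC/well; measured by: immunofluorescence imaging; read-out: % PE-positive cells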
UUG fidelity – modulators of yeast start codon fidelity, primary screen, whole organism, S. cerevisiae, single point, plate reader | AID 602363, 2012 | S. cerevisiae UUG-firefly luciferase reporter, luminescence/redox ratio | activity score, % at 18.7 µM | hit rate 0.13% among 350,000;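 active = replicate mean at a twofold rise or more, about +100% in these data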;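 also: firefly luciferase made from a UUG start codon reports start codon fidelity; reporter light over untreated wells divided by growth signal over untreated wells; some hits fall short of that in this replicate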
esBAF inh – SWI/SNF esBAF complex inhibition; actives 2% (n = 350,000); AID 602393; mouse ES cells, Bmi1-luciferase knock-in reporter, 24 h; 100% = twice the neutral-well signal; reporter increase, % at 12.5 µM; in the data active = activation above about 40%;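 note: 0% = median of the plate's neutral control wells and 100% = double that signal; a rise in the Bmi1 reporter signal indicates esBAF inhibition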
PglD DTNB – PglD (C. jejuni) enzyme inhibition; actives 0.098% (n = 360,000); purified PglD enzyme, DTNB colorimetric CoA detection; inhibition, % at 12.5 µM; AID 602405; in the data active = inhibition above about 16%, passing the limit was not always enough
Statin myotox sup – protects C2C12 myotubes from simvastatin toxicity | ATP luminescence, 48 h; scaled: DMSO 0, geranylgeraniol control 100 | rescue of ATP level, % at 7.49 µM | actives 0.78% (n = 330,000) | AID 602340;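 active = mean ATP rescue above about 67%, or every replicate alone reaching that limit, limit read from the data, passing the limit was not always enough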;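 note: myotubes were challenged with 10 µM simvastatin during compound exposure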
* hit, by the source's call; . = not tested or not shown.

A first look, 2 compounds:
Below each compound – PglD DTNB	E-selectin induc	Statin myotox sup	UUG fidelity	esBAF inh	PGC1a acetyl inh
CNC[C@@H]1Oc2ccc(NC(=O)Nc3cccc4ccccc34)cc2CC(=O)N([C@H](C)CO)C[C@H]1C
 : 2	3	16	6	4	-5
Cc1nc(N2CCN(c3ccccn3)CC2)c2c(C)c(C(=O)Nc3ccc(F)cc3F)sc2n1
 : -2	2	-4	-6	6	2

The listing, repeating the preview:
Below each compound – PglD DTNB	E-selectin induc	Statin myotox sup	UUG fidelity	esBAF inh	PGC1a acetyl inh
CNC[C@@H]1Oc2ccc(NC(=O)Nc3cccc4ccccc34)cc2CC(=O)N([C@H](C)CO)C[C@H]1C
 : 2	3	16	6	4	-5
Cc1nc(N2CCN(c3ccccn3)CC2)c2c(C)c(C(=O)Nc3ccc(F)cc3F)sc2n1
 : -2	2	-4	-6	6	2
Cc1nc(N2CCN(c3ccccn3)CC2)c2c(C)c(C(=O)Nc3ccc(F)cc3Cl)sc2n1
 : 2	43*	-10	13	28	-22
CCCCC(=O)Nc1cc2nn(-c3ccc(OC)cc3)nc2cc1C
 : 4	.	-7	-11	42*	-9
CCC(=O)N1CC2(C1)[C@@H](c1ccccc1)[C@@H](CO)N2Cc1cccc(Cl)c1
 : .	0	.	.	.	-5
C[C@@H]1CCCCO[C@H](CN(C)CC2CCCCC2)[C@H](C)CN([C@H](C)CO)C(=O)c2cc(NC(=O)Nc3ccc4c(c3)OCO4)ccc2O1
 : 5	0	1	5	2	-22
C[C@@H]1CN([C@@H](C)CO)C(=O)c2cc(NC(=O)Nc3ccc4c(c3)OCO4)ccc2O[C@@H](C)CCCCO[C@H]1CN(C)Cc1ccncc1
 : 4	0	.	1	57*	-2
C[C@H](CO)N1C[C@H](C)[C@@H](CN(C)CC2CCCCC2)OCCCC[C@H](C)Oc2ccc(NC(=O)Nc3ccc4c(c3)OCO4)cc2C1=O
 : 5	0	70*	0	0	-21
COc1ccc(NC(=O)Nc2ccc3c(c2)C(=O)N([C@@H](C)CO)C[C@@H](C)[C@@H](CN(C)CC2CCCCC2)OCCCC[C@H](C)O3)cc1
 : -2	0	89*	5	-3	13
C[C@@H]1CN([C@@H](C)CO)C(=O)c2cc(NC(=O)Nc3ccc(F)cc3)ccc2O[C@@H]1CN(C)S(=O)(=O)c1cn(C)cn1
 : 0	0	-34	4	-2	0
O=C(C[C@H]1CC[C@@H]2[C@H](COC[C@H](O)CN2C(=O)c2ccccc2F)O1)NCc1ccc(Cl)c(Cl)c1
 : -2	0	-10	.	4	-10
CCOc1ccc(N=C2Sc3nc4ccc(C)cc4cc3CN2CCOC)cc1
 : .	3	-4	.	54*	.
COCCN1Cc2cc3cc(C)ccc3nc2SC1=Nc1cccc(OC)c1
 : .	-2	-11	.	49*	.
O=C(CC(F)(F)F)N1C[C@@H]2[C@H](c3ccccc31)[C@H](CO)N2C(=O)C1CCOCC1
 : 1	0	-14	32	-2	-9
O=C(Nc1nc2ccccc2s1)c1c(F)cccc1Cl
 : -1	.	5	-22	52*	-18
Cn1cc(Cl)c(C(=O)Nc2nc3ccccc3s2)n1
 : -1	.	-279	-20	-4	-1
O=C(CCNC(=O)c1ccccc1Cl)Nc1nc2ccc(F)cc2s1
 : .	0	3	-6	52*	3
CCCNC(=O)N[C@H]1C=C[C@@H](CC(=O)NC2CCCCC2)O[C@@H]1CO
 : -1	0	-6	2	-3	-6
Cc1ccc(/C=C(\C#N)C(=O)Nc2c(C)cccc2C)s1
 : .	.	-10	.	1	12
Cc1ccc(NC(=O)/C(C#N)=C/c2ccc(C)s2)c(C)c1
 : -5	.	10	-14	42*	12
COC(=O)c1ccc2c(c1)C(=O)/C(=C/c1ccc(C)cc1)O2
 : -1	6	4	0	67*	-5
CCc1ccc(/C=C2\Oc3ccc(C(=O)OC)cc3C2=O)cc1
 : .	1	.	.	.	.
CCOC(=O)c1ccc(NS(=O)(=O)c2ccc(-c3coc(C)n3)cc2)cc1
 : 5	.	93*	-13	32	-7
CCOc1ccc(NS(=O)(=O)c2ccc(-c3coc(C)n3)cc2)cc1
 : 2	.	2	-5	1	8
C[C@@H]1CN([C@@H](C)CO)C(=O)c2cccc(N(C)C)c2O[C@@H]1CN(C)C(=O)Nc1ccc(F)cc1
 : -1	0	9	11	3	-6
C[C@@H]1CN([C@H](C)CO)C(=O)c2cccc(N(C)C)c2O[C@H]1CN(C)Cc1ccc(Oc2ccccc2)cc1
 : -2	.	-31	7	-3	-14
CC(C)OC(=O)c1ccc2ccc(-c3ccccc3)nc2c1
 : 7	-2	-19	-23	55*	-5

Only PGC1a acetyl inh (two entries from above):
structure,PGC1a acetyl inh
O=C(CC(F)(F)F)N1C[C@@H]2[C@H](c3ccccc31)[C@H](CO)N2C(=O)C1CCOCC1,-9
O=C(Nc1nc2ccccc2s1)c1c(F)cccc1Cl,-18
